In patent US4721775A, “Effective peptides related to the luteinizing hormone releasing hormone from L-amino acids” (Board of Regents, The University of Texas System, priority 1985, dated 1988):

Experiments:
release of FSH = test: Release of FSH in rats after sc injection; assay type: in vivo; conditions: for FSH % change: LHRH = 100
Excerpt: (§1) The data on the release of LH and FSH in rats by modifications of LHRH with one structural change are in Table II.
(§2) Exclusive of the salmon-LHRH, only one of the six decapeptides with two structural changes had significant activity.

rat pituitary cells = conditions: cited from earlier work
[1] = system: rat anterior pituitary cells in primary culture; conditions: cited from earlier work
release of LH = test: Release of LH in rats after sc injection; assay type: in vivo; conditions: for LH % change: LHRH = 100
Excerpt: as §1, §2

[2] = 30 min. after sc injection, 100 ng
[3] = 30 min. after sc injection, 1000 ng
[4] = 60 min. after sc injection, 3000 ng
[5] = release 30 min. after sc injection, dosage of peptide 100 ng
[6] = release 30 min. after sc injection, dosage of peptide 1000 ng
[7] = release 60 min. after sc injection, dosage of peptide 3000 ng
[8] = fraction of the activities of LHRH or words

CC(C)C[C@H](NC(=O)CNC(=O)[C@H](Cc1ccc(O)cc1)NC(=O)[C@H](CO)NC(=O)[C@H](Cc1c[nH]c2ccccc12)NC(=O)[C@H](Cc1c[nH]cn1)NC(=O)[C@@H]1CCC(=O)N1)C(=O)N[C@@H](CCC(N)=O)C(=O)N1CCC[C@H]1C(=O)NCC(N)=O [[Gln^8]--LHRH, pGlu--His--Trp--Ser--Tyr--Gly--Leu--Gln--Pro--Gly--NH2, reference compound]
FSH % change (release of FSH; [2]): 58% | FSH % change (release of FSH; [3]): 57% | FSH % change (release of FSH; [4]): 49% | FSH (release of FSH; [5]): 284 ng/mL | FSH (release of FSH; [6]): 396 ng/mL | FSH (release of FSH; [7]): 465 ng/mL | activities to release FSH compared with LHRH (Table I) (rat pituitary cells; [8]): extremely low activities | activity to release FSH relative to P/O LHRH (rat pituitary cells; in vitro, rat pituitary cells, Miyamoto et al. (b)): 3.2% | activities to release LH compared with LHRH (Table I) [1, 8]: extremely low activities | activity (potency) to release LH relative to P/O LHRH ([1]; in vitro, rat pituitary cells, Sherwood et al. (a), Miyamoto et al. (b)): 3.4% | LH % change (release of LH; [2]): 5.5% | LH % change (release of LH; [3]): 15.2% | LH % change (release of LH; [4]): 7% | LH (release of LH; [5]): 0.6 ng/mL | LH (release of LH; [6]): 7 ± 0.8 ng/mL | LH (release of LH; [7]): 5.5 ng/mL
